Results taken from publication PMC9137774, “The ArsH Protein Product of the Paracoccus denitrificans ars Operon Has an Activity of Organoarsenic Reductase and Is Regulated by a Redox-Responsive Repressor” (Antioxidants, 2022).

Sequences of proteins named here, by UniProt entry; tags and fusion partners are left off. Residues count along the entry.
UniProt A1B6S0, 1-235 limits assumed: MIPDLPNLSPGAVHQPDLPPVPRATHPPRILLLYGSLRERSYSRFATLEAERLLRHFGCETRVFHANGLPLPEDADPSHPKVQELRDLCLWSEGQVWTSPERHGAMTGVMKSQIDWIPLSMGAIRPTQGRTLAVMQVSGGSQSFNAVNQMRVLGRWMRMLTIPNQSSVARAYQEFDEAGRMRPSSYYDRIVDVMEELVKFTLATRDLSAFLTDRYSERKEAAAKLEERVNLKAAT

Molecular target: ArsH (Pden_3133; N-His6-ArsH) (Paracoccus denitrificans, UniProt A1B6S0)
Assay: NADPH oxidation at […] nm, extra initial velocity over FMN-only rate, bisubstrate fit
Settings: read-out: KM^PhAsO(OH)2 (apparent); 50 μM FMN fixed, NADPH varied; 0.1 M sodium phosphate pH 7.0, 30 °C; ping-pong

O=[As](O)(O)c1ccccc1 showed a Km of 177 µM.
